Values of other authors in patent publication US20230189804A1, “PROHEXADIONE PLANT GROWTH REGULATOR COMPOSITION” (Nufarm Americas, Inc., priority 2021, published 2023).

Details: distilled water at 20° C.

solubility: about 786 mg/I
Substance: calcium 3,5-dioxo-4-(1-oxopropyl)cyclohexanecarboxylate [Prohexadione calcium]
